# US6531156B1, “Aqueous solven encapsulation method, apparatus and microcapsules” (Temple University, priority 1994, dated 2003)
# Settings: spermine alginate microcapsules, 5 water washes, absorbance after dissolving microcapsules with sodium chloride
substance,measurement,value
blue dextran,initial amount of core material retained in the microcapsules during the repeated washings,more than half
